Experimental data from patent US20250333518A1 (ROCK BIOMEDICAL, published 2025).

Molecular target: tumor necrosis factor-alpha (TNFα) (UniProt P01375)
Experiment: ELISA, target binding

Substance: Adalimumab (Humira®) population produced by the SAII A3 cells according to the present disclosure (antibody; other documents disagree on this pair)
- EC50: 0.373 nM

Substance: Adalimumab, commercially available product (Humira®) (antibody; other documents disagree on this pair)
- EC50: 0.213 nM
